Measured values published in publication PMC12109561, “LPS2336, a New TREK-1 Channel Activator Identified by High Throughput Screening” (Biomolecules, 2025).

Chains of the proteins cited; added tags and fusions are not shown. Residues count along the entry.
UniProt O95069, 1-422 isoform 3: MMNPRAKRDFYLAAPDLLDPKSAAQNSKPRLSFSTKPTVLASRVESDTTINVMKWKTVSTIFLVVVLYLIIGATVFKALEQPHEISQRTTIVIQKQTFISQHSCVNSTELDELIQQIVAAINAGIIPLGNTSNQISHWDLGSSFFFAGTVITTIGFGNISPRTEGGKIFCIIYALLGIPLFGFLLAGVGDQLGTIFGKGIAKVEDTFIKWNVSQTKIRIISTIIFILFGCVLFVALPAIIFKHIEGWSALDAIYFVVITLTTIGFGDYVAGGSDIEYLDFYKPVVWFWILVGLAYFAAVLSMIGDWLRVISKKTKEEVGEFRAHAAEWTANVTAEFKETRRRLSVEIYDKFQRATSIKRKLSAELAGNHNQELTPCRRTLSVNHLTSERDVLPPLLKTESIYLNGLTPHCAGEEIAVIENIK
UniProt P57789, whole entry: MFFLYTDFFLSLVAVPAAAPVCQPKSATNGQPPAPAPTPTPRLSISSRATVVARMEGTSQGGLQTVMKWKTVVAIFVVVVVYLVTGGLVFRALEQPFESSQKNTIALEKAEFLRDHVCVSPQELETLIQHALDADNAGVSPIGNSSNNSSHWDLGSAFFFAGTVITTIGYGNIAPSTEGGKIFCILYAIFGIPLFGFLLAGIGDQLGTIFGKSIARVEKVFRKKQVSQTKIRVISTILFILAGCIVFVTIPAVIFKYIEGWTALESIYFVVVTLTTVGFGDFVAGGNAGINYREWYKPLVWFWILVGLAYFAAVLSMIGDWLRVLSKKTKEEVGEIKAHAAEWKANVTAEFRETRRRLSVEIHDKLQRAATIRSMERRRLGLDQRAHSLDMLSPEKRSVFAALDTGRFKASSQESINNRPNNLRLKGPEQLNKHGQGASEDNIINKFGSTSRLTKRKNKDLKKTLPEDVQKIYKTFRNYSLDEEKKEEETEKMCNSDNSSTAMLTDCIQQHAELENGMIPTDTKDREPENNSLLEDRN

Legend:
hTREK-1 [1] = target: T1, hTREK-1 (Homo sapiens, UniProt O95069); test: Thallium flux assay (FluxOR II Green) on HEK-hTREK-1 cells, incl. high throughput screening; settings: highest concentration tested (100 µM) compared to lowest (1.7 nM)
Description: Cells were plated in 384-well plates with black walls and clear bottom coated with poly-D-lysine (Greiner Bio-One, Kremsmünster, Austria, #781946) at a density of 25 000 cells/well from a 1 250 000 cells/mL solution. Cell counting was performed with an automatic cell counter (Countness II FL, ThermoFisher, Waltham, MA, USA) with addition of trypan blue 0.2% to exclude dead cells. 24 h after plating, cells were incubated with FluxOR II green probe (ThermoFisher) for 1 h in the dark, accordingly to the supplier’s protocol (‘no wash’ procedure) with addition of 77 mg/mL probenecide. […] Fluorescence was measured every 3 s during 1 min (excitation 485 nm, emission 515 nm), and 0.5 mM thallium was added to the wells after a 20 s baseline. […] Fluorescence is normalized using the formula (F − F0)/F0 where F0 is the average fluorescence during the first 18 s of the recording. ΔFmax/F0 is calculated between 18 and 33 s (−2 to 13 s relative to thallium addition). For dose–response curves, ΔFmax/F0 are expressed as %vehicle (100% corresponding to the average ΔFmax/F0 measured in vehicle-treated wells). For high throughput screening, Z scores were calculated as(1) Z=Xsample−X¯neg/σneg where X represents ΔFmax/F0 and σ the ΔFmax/F0 standard deviation. ‘neg’ represents negative controls (vehicle-treated wells). […]

hTREK-1 [2] = target: T1, hTREK-1; test: Whole cell patch clamp on HEK-hTREK-1 cells; settings: 50 µM
CD1 mice = test: Rotarod test; settings: i.p. 10 to 50 mg/kg, 15 min before the test
Description: To evaluate motor coordination, mice were placed on a 9 cm diameter rod with increasing rotating speed until they fell (rotarod apparatus, Bioseb, Vitrolles, France). The day before testing, animals were trained to the test until they could stay on the rod rotating at 4 rpm for 60 s. On test day, animals were placed on the rod at 4 rpm and the apparatus was set to accelerate from 4 to 40 rpm in 300 s. The test began when acceleration started and ended when the animal fell off the rod. The procedure was repeated three times with a 15 min recovery interval and the average latency to fall was calculated for each animal.
To search for possible adverse effects induced by LPS2336 in vivo, we submitted CD1 mice to different confounding tests aiming at characterizing motor coordination, balance, muscle strength and spontaneous locomotor activity. Animals received an intraperitoneal injection of LPS2336.HCl at a dose of 10 to 50 mg/kg 15 min before the test, corresponding to the peak of analgesic effect previously observed. […] Finally, we monitored the body temperature of mice for 45 min after intraperitoneal injection of LPS2336 at 40 mg/kg and could observe hypothermia in both WT and TREK-1 KO (−2.4 and −2.6 °C, respectively) following LPS2336 treatment (Figure 7F,G).

human TREK2 = human TREK2 (Homo sapiens, UniProt P57789); test: Whole cell patch clamp on HEK-hTREK2 cells; settings: 50 µM, p = 0.0959

## N#CCN1CCC(Cc2ccccc2)CC1 [LPS2336]
hTREK-1 [1]
  increase in ΔFmax/F0: 2.26 fold
hTREK-1 [2]
  current increase compared with free base: comparable to that of LPS2336
CD1 mice
  performance on rotarod (motor coordination): performed normally
Human TREK2
  increase in TREK-2 current: 2.78 folds
